# Laboratory results from US10456394B2, “Tetrahydroquinoline substituted hydroxamic acids as selective histone deacetylase 6 inhibitors” (THE BOARD OF TRUSTEES OF THE UNIVERSITY OF ILLINOIS, priority 2016, dated 2019).
# By UniProt entry, the sequences of proteins in these tests, tags left out. Where a name states a change or a piece, a line headed by the entry shows the natural chain unless it says otherwise.
# UniProt P56524: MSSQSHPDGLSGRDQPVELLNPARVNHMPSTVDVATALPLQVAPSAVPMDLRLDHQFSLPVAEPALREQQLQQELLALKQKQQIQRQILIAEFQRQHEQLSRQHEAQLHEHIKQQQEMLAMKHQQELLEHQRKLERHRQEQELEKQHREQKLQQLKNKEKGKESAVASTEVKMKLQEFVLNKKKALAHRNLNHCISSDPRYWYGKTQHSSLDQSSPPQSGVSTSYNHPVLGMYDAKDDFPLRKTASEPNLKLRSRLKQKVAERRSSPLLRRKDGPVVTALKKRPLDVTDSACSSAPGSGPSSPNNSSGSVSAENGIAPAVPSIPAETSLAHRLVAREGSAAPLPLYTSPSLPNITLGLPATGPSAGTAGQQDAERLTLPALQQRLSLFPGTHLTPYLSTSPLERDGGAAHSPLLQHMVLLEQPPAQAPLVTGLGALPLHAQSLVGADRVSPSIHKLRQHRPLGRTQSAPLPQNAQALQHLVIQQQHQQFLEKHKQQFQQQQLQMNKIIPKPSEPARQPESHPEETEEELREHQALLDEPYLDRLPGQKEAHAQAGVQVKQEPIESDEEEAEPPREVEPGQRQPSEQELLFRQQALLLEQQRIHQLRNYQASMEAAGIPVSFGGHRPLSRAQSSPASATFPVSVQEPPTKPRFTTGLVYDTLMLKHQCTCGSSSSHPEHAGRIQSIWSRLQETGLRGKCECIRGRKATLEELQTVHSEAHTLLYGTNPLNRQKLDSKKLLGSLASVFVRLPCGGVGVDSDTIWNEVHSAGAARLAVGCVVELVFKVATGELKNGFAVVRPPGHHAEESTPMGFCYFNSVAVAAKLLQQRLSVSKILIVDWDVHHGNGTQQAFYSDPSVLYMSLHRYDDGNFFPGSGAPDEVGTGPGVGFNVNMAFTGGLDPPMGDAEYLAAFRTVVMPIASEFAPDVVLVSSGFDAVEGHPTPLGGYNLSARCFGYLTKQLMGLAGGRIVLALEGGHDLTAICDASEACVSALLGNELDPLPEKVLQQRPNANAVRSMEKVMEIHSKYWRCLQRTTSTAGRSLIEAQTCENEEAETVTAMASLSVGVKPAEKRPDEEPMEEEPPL
# Target: HDAC4 (Homo sapiens (Human), UniProt P56524)
# Assay: HDAC enzyme activity inhibition assay, HDAC4
# Type: biochemical
# Details: Table 2; mean of two experiments
smiles,measurement,value
"CN1CCc2c(c3ccccc3n2Cc2ccc(C(=O)NO)cc2)C1 [Tubastatin A HCl, reference compound]",IC50,3670 nM

# Counter-ions that a name gives are not always drawn.
